Three compounds from EP4825857A1, “TRICYCLIC FUSED HETEROCYCLIC PDE3/4 DUAL INHIBITOR, AND PREPARATION AND USE THEREFOR” (dated 2026) can be followed below.

By UniProt entry, the sequences of proteins in these tests, tags left out. Chains listed by the source or under a name are the forms on record and can include a tag or linker. Residues count along the entry.
UniProt Q9Y233, 267-1055: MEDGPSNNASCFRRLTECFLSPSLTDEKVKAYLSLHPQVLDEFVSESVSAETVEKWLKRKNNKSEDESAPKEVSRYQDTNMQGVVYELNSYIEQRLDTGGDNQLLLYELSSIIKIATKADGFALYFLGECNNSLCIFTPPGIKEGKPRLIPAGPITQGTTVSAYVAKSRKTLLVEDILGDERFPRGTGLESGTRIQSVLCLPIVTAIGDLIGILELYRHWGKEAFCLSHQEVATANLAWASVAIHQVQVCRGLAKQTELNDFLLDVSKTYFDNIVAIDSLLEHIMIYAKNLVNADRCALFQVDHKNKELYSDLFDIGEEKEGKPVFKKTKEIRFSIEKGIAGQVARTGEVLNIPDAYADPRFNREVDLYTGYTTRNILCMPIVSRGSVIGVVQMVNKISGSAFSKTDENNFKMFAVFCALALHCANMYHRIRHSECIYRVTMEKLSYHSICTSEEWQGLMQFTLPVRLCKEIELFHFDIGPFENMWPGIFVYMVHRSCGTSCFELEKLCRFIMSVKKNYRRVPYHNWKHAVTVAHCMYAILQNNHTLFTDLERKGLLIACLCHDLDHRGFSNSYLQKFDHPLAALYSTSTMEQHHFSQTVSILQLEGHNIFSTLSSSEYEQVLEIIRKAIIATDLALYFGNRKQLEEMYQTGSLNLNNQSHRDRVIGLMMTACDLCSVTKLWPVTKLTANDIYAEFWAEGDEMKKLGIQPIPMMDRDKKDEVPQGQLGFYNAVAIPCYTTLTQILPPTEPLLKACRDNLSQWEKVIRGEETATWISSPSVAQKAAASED
UniProt Q9Y233, 1-779 with tags or gaps: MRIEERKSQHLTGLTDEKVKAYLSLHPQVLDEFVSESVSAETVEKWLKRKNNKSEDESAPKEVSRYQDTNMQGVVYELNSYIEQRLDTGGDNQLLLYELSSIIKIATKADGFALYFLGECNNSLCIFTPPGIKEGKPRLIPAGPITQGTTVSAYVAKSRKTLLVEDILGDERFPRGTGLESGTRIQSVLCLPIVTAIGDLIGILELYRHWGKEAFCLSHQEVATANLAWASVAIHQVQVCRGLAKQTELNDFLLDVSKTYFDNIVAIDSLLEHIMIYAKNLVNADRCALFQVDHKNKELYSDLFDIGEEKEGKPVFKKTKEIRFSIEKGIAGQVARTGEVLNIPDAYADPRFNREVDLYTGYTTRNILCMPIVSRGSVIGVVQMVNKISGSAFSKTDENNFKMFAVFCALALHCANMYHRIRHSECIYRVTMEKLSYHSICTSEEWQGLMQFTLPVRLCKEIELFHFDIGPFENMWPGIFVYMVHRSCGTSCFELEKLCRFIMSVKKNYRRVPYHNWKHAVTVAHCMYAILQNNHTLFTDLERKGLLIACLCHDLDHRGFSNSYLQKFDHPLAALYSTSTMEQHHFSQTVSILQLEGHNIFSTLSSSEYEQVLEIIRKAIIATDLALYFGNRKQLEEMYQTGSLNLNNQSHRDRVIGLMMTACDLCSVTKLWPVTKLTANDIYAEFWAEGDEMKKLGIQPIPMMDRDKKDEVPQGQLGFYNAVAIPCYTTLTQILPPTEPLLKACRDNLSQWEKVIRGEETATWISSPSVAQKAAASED
UniProt Q07343, whole entry: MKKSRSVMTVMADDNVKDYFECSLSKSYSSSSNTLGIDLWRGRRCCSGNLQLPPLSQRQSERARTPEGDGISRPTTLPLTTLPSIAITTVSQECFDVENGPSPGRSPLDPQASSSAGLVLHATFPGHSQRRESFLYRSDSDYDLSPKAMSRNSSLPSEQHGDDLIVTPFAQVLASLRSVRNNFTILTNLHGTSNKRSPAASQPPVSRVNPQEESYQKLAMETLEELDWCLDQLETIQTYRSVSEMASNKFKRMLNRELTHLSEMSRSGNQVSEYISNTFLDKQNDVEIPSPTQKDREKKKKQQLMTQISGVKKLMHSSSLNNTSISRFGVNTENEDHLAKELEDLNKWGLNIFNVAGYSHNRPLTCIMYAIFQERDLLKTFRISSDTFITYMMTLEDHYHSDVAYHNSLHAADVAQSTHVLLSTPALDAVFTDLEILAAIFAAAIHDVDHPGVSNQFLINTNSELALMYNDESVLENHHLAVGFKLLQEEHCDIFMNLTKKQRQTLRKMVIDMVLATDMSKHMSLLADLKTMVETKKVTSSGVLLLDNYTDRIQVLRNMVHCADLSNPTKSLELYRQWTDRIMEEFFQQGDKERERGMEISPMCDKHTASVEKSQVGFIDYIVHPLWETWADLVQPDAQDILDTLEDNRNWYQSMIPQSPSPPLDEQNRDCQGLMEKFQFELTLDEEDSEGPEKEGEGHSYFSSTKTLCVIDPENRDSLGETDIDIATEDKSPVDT
UniProt Q08493, whole entry: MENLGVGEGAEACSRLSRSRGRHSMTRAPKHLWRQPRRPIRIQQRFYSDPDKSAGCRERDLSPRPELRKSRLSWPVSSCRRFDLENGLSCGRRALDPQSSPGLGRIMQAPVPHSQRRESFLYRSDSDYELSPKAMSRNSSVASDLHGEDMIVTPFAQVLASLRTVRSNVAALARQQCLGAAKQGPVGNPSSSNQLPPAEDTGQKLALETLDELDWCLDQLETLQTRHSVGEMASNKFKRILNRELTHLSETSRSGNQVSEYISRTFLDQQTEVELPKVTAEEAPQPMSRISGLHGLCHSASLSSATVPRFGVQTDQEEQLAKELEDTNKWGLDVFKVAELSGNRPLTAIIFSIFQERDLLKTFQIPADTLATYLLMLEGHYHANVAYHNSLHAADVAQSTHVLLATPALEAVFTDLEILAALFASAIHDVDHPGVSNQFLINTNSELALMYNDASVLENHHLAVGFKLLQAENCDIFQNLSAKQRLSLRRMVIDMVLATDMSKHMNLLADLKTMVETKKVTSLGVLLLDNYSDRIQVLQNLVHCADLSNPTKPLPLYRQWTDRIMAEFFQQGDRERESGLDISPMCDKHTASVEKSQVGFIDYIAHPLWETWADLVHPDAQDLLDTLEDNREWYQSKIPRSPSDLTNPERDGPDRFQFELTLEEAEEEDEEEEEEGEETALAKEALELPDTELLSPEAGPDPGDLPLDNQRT
UniProt Q08499, 1-673 with tags or gaps: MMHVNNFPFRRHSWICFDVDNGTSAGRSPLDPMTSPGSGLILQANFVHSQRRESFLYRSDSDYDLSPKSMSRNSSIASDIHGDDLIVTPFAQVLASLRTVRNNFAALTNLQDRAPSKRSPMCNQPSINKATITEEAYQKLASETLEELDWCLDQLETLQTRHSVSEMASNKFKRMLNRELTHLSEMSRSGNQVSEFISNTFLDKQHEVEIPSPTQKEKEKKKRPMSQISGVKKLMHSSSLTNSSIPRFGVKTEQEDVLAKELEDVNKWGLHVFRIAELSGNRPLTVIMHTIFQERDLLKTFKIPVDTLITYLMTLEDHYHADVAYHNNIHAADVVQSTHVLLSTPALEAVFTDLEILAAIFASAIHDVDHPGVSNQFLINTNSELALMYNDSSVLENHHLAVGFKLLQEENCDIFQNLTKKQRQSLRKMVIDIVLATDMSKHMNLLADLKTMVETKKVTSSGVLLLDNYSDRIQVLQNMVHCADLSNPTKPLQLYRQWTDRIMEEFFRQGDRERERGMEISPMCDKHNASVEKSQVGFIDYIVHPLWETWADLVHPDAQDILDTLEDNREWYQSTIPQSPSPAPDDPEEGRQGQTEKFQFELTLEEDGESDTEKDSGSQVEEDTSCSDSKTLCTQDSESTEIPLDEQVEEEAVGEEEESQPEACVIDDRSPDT
UniProt Q13946, whole entry: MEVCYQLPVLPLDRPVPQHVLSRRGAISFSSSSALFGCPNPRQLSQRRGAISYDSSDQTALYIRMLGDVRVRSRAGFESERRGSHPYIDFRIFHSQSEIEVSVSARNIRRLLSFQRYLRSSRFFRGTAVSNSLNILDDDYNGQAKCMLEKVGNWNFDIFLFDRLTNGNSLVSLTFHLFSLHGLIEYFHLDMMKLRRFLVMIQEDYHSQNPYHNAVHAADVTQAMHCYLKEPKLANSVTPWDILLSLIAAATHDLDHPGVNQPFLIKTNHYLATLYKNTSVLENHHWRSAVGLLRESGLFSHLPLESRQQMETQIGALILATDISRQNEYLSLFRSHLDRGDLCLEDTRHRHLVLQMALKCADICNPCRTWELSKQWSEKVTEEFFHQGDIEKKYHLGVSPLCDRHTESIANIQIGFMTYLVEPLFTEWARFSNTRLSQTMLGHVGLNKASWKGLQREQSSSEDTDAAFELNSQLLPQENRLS
UniProt Q9NP56, whole entry: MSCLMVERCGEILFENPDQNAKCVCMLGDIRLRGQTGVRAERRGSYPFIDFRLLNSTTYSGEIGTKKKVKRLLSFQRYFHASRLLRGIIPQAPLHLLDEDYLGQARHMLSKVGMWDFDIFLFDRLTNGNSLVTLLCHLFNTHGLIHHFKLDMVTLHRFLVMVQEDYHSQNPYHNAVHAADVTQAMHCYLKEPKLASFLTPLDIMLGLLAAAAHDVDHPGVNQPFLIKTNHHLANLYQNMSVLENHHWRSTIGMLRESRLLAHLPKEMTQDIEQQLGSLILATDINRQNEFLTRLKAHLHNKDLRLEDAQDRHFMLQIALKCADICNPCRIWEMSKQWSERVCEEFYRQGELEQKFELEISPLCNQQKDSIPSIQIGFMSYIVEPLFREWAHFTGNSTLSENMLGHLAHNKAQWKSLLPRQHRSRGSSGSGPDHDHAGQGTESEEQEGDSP
UniProt O76083, with tags, fused parts or gaps: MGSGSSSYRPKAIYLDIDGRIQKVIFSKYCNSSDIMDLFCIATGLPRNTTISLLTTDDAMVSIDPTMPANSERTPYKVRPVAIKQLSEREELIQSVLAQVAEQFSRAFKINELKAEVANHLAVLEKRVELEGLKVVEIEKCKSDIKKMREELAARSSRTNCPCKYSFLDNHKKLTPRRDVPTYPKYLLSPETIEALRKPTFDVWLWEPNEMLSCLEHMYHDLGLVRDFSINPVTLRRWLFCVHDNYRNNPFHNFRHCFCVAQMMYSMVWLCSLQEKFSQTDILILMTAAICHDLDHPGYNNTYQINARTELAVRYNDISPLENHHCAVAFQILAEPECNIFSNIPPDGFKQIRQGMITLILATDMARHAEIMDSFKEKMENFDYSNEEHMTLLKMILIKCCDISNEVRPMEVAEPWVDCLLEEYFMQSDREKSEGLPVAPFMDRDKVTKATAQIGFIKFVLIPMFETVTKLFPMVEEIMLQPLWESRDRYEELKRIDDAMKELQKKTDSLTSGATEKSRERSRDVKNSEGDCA

Experiment [1] concerns the target PDE10A1 (Homo sapiens, UniProt Q9Y233). Put plainly: PDE enzyme activity inhibition assay II (fluorescence polarization). The settings on record: read-out: IC50, nM PDE10A1; FP assay II, Table 5. The procedure: (§1) In a reaction buffer, i.e., 1× IMAP Reaction Buffer containing 0.1% BSA and supplemented with 1 mM DTT, a PDE enzyme solution and a substrate solution (FAM-cyclic AMP/cyclic AMP) were prepared. The positive control was prepared at an initial concentration of 1/10 µM for the PDE assay and was diluted 3-fold, with a 10+0 dose design. Using the acoustic liquid handling technology (Echo 655), 0.05 µL of each compound in 100% DMSO was transferred into a 384-well plate (Corning 4514), followed by centrifugation at 1,000 rpm for 1 min. Then, 2.5 µL of the PDE enzyme solution was transferred into the 384-well reaction plate, followed by centrifugation at 1,000 rpm for 1 min and incubation at 25 °C for 10 min. Subsequently, 2.5 µL of the substrate solution was transferred into the 384-well reaction plate, followed by centrifugation at 1,000 rpm for 1 min and incubation at 25 °C for 60 min. Then, 15 µL of a binding reagent mixture was transferred into the 384-well reaction plate, followed by centrifugation at 1,000 rpm for 1 min and incubation at 25 °C for 60 min. Finally, the FP signal was measured using a BMG PHERAstar FSX plate reader. IC50 values and nonlinear regression curve fitting were obtained using GraphPad Prism software.
(§2) The inhibitory activities of the compounds against PDE enzymes were evaluated using the FP method, with RPL-554 and compound D7 as control compounds. The detailed test method was the same as that described in PDE Enzyme Activity Inhibition Assay I. The structural formulae of RPL-554 and compound D7 are shown below. [drawing 183]

For experiment [2], the target named is PDE10A2 (Homo sapiens, UniProt Q9Y233). The experiment is described as above. The settings on record: read-out: IC50, nM PDE10A2; FP assay II, Table 5. The method, then: as §1, §2
Experiment [3] addresses PDE4B1 (Homo sapiens, UniProt Q07343). Described as above. The settings on record: read-out: IC50, nM PDE4B1; FP assay II, Table 5. The procedure: as §1, §2
The target in experiment [4] is PDE4C1 (Homo sapiens, UniProt Q08493). Described as above. The settings on record: read-out: IC50, nM PDE4C1; FP assay II, Table 5. The method, then:
as §1, §2

Experiment [5] deals with PDE4D3 (Homo sapiens, UniProt Q08499). The experiment is described as above. The settings on record: read-out: IC50, nM PDE4D3; FP assay II, Table 5. The procedure: as §1, §2
The target in experiment [6] is PDE5A1 (Homo sapiens, UniProt O76074). The experiment is described as above. The settings on record: read-out: IC50, nM PDE5A1; FP assay II, Table 5. The procedure: as §1, §2
Experiment [7] concerns the target PDE7A1 (Homo sapiens, UniProt Q13946). The description is as above. The settings on record: read-out: IC50, nM PDE7A1; FP assay II, Table 5. The procedure: as §1, §2
The target in experiment [8] is PDE7B (Homo sapiens, UniProt Q9NP56). The experiment is described as above. The settings on record: read-out: IC50, nM PDE7B; FP assay II, Table 5. The method, then:
as §1, §2

In experiment [9] the target is PDE9A2 (Homo sapiens, UniProt O76083). The description is as above. The settings on record: read-out: IC50, nM PDE9A2; FP assay II, Table 5. The procedure:
as §1, §2

Experiment [10] has as its system Nebulized Acetylcholine-Induced Airway Constriction in Mice. Description: Nebulized acetylcholine-induced airway constriction in mice (airway resistance RL). The settings on record: for Baseline value / 15 mg/mL ACh challenge / Challenge-induced increase: airway resistance (RL), single animal; for Baseline value: about 0.5 h after nebulized administration (14 mg/mL, 400 µL), before ACh challenge; for 15 mg/mL ACh challenge: after nebulized ACh 15 mg/mL, 20 µL, 30 s; for 15 mg/mL ACh challenge / Challenge-induced increase / Mean: compound 14 mg/mL; for Inhibition (%): inhibition of ACh challenge-induced increase of airway resistance, compound 14 mg/mL nebulized; for Mean: mean of challenge-induced increase of airway resistance, 3 animals. The method, then: Preparation of test compound: the test compounds were weighed as pure compounds without considering impurities due to the high purity of the test compounds. The test compound was prepared at a concentration of 10 mg/mL, using a pH 3.2 citric acid-disodium hydrogen phosphate buffer containing 25% DMSO as the solvent.
Administration of test compounds: The test compounds were administered to mice by oronasal nebulization using a NAM system from DSI. Each mouse received a total volume of 400 µL, delivered in two nebulization sessions of 5 min each. The model group received an equal volume of vehicle by nebulization.
Newly received experimental animals were quarantined for 3 days and grouped as described above. Airway nebulized administration was performed using the NAM system, with the nebulization procedure consisting of 5-min nebulization (200 µL), a 3-min interval, and another 5-min nebulization (200 µL). Approximately 0.5 h after completion of nebulized administration, acetylcholine was nebulized using the RC system (15 mg/mL, 20 µL, 30 s, prepared in 0.9% normal saline) to challenge the animals to induce airway constriction, and changes in airway resistance (RL) were simultaneously measured using the RC instrument.

In experiment [11] the test system is acetylcholine chloride-induced airway constriction in guinea pigs. Put plainly: Guinea pig model of airway constriction induced by acetylcholine chloride (inhaled compound, airway resistance). The settings on record: 2 h after single nebulized inhalation, acetylcholine 25 to 100 µg/kg. The method, then:
• (1) The inhibitory effect of the inhaled test compound, Compound 10-2 of the present disclosure, on acetylcholine chloride-induced airway constriction in guinea pigs was evaluated. 40 male Hartley guinea pigs were randomly divided into four groups: a negative control group (clean air, 60-min inhalation), a low-dose test group (10-min inhalation), a medium-dose test group (20-min inhalation), and a high-dose test group (60-min inhalation), with 10 animals per group. The animals received a single-inhalation administration. Approximately 2 h after inhalation, the animals were anesthetized. The trachea and jugular vein were surgically exposed. The trachea was cannulated, and a catheter was inserted into the jugular vein. Each animal was placed on the support platform of a whole-body plethysmograph and connected to the respiratory circuit. […] Airway resistance was measured using an AniRes2005 animal pulmonary function analysis system.
(2) The inhibitory effect of the inhaled test compound, Compound 1-2 of the present disclosure, on acetylcholine chloride-induced airway constriction in guinea pigs was evaluated. […] Acetylcholine chloride was administered at different doses via the jugular venous catheter, and airway resistance was measured using the AniRes2005 animal pulmonary function analysis system.

“And” between values parts separate entries of the source, which are not always exact repeats. Equal values may be shown once.

In the case of `COc1cc2c(cc1OC)-c1cc(=Nc3c(C)cc(C)cc3C)n(CCNC(N)=O)c(=O)n1CC2`, the IC50 in experiment [1] was 892 nM; in experiment [2] it was 680 nM; in experiment [3], 450 nM; in [4], 547 nM; in experiment [5], 182 nM; in experiment [6], more than 10000 nM. For the same compound, the IC50 in [7], in experiment [8] and in experiment [9] was more than 10000 nM throughout. Besides, the Baseline value in experiment [10] is 1 (2×) and 0.9. In addition, the “15 mg/mL ACh challenge” value in experiment [10] was 5.5 and 10.3 and 9.9. The Challenge-induced increase in experiment [10] was 4.5 and 9.4 and 8.9. Moreover, in experiment [10], the “Inhibition (%)” value was 28.3%. In [10], this compound had a Mean of 7.6.
As to `COc1cc2c(cc1OC)-c1cc(N(c3c(C)cc(C)cc3C)C(C)CNC(N)=O)nc(=O)n1CC2` (single isomer, unassigned) [Compound 1-2], the IC50 came to 65.9 nM in experiment [1]; 48.3 nM in [2]; 269 nM in [3]; 618 nM in [4]; 96.2 nM in experiment [5]; 7580 nM in [6]. Further, the concentration for half-maximal inhibition (IC50) is more than 10000 nM in [7], 9950 nM in experiment [8] and more than 10000 nM in experiment [9]. The “inhibition of airway constriction (airway resistance)” value in experiment [11] (delivered doses 0.235, 0.470 and 1.174 mg/kg) is listed as “significantly inhibited airway constriction”. In [10], this compound came in with a Baseline value of 1.0. For the same compound, the “15 mg/mL ACh challenge” value in experiment [10] was 3.1 and 1.9 and 2.3. In addition, the Challenge-induced increase in [10] was 2.1 and 0.9 and 1.3. Further, the “Inhibition (%)” value in experiment [10] was 86.5%. Moreover, the Mean in [10] came to 1.4.
With `COc1cc2c(cc1OC)-c1cc(N(c3c(C)cc(C)cc3C)C(C)CNC(=O)c3ncc[nH]3)nc(=O)n1CC2` (single isomer, unassigned) [Compound 10-2], the “inhibition of airway constriction (airway resistance)” value in experiment [11] (delivered doses 0.171, 0.341 and 1.024 mg/kg) was “significantly inhibited airway constriction”.
